Experimental data taken from US10072034B2, “Kinase inhibitors” (Respivert Limited, priority 2016, dated 2018).

Test system: IL-8 release in PBMCs
Test: LPS-induced IL-8 release in PBMC cells (assay (b))
Format: cell-based, human
Conditions: LPS-stimulated PBMCs
Source text: Peripheral blood mononuclear cells (PBMCs) from healthy subjects are separated from whole blood using a density gradient (Lymphoprep, Axis-Shield Healthcare). […] The supernatant is harvested for determination of IL-8 and TNFα concentrations by sandwich ELISA (Duo-set, R&D systems) and read on the fluorescence microplate reader (Varioskan® Flash, ThermoFisher Scientific).

For `COc1cc(Nc2cc(Oc3ccc(NC(=O)Nc4cc(C(C)(C)C)cc(NS(C)(=O)=O)c4OC)c4ccccc34)ccn2)cc(OCCOCCOC(C)C(=O)O)c1` (single isomer, unassigned) [20(a)], the IC50 (Homo sapiens, PBMC) was 10.4 nM.

`COc1cc(Nc2cc(Oc3ccc(NC(=O)Nc4cc(C(C)(C)C)cc(NS(C)(=O)=O)c4OC)c4ccccc34)ccn2)cc(OCCOCCOCc2nnn[nH]2)c1` [Example 23, N-(3-(3-(4-((2-((3-(2-(2-(1H-Tetrazol-5-yl)methoxyethoxy)ethoxy)-5-methoxyphenyl)amino)-pyridin-4-yl)oxy)naphthalen-1-yl)ureido)-5-(tert-butyl)-2-methoxyphenyl)methanesulfonamide] gave an IC50 (Homo sapiens, PBMC) of 29.2 nM.

`COc1cc(Nc2cc(Oc3ccc(NC(=O)Nc4cc(C(C)(C)C)on4)c4ccccc34)ccn2)cc(OCCOCCOCC(=O)O)c1` [Example 17, 2-(2-(2-(3-((4-((4-(3-(5-(tert-Butyl)isoxazol-3-yl)ureido)naphthalen-1-yl)oxy)pyridin-2-yl)amino)-5-methoxyphenoxy)ethoxy)ethoxy)acetic acid] showed an IC50 (Homo sapiens, PBMC) of 17.2 nM.

`COc1cc(Nc2cc(Oc3ccc(NC(=O)Nc4cc(C(C)(C)C)cc(N(C)S(C)(=O)=O)c4OC)c4ccccc34)ccn2)cc(OCCOCCOCC(=O)O)c1` [Example 11, 2-(2-(2-(3-((4-((4-(3-(5-(tert-Butyl)-2-methoxy-3-(N-methylmethylsulfonamido)phenyl)ureido)-naphthalen-1-yl)oxy)pyridin-2-yl)amino)-5-methoxyphenoxy)ethoxy)ethoxy)acetic acid] was tested, and the IC50 (Homo sapiens, PBMC) was 11.7 nM.

In the case of `CNC(=O)c1cc(C(C)(C)C)cc(NC(=O)Nc2ccc(Oc3ccnc(Nc4cc(OC)cc(OCCOCCOCC(=O)O)c4)c3)c3ccccc23)c1OC` [Example 7], the IC50 (Homo sapiens, PBMC) is reported as 20.8 nM.

`COc1cc(Nc2cc(Oc3ccc(NC(=O)Nc4cc(C(C)(C)C)cc(NS(C)(=O)=O)c4OC)c4ccccc34)ccn2)cc(OCCOCCOC(C)C(=O)O)c1` (single isomer, unassigned) [20(b)] gave an IC50 of 19.1 nM.

Work on `COc1cc(Nc2cc(Oc3ccc(NC(=O)Nc4cc(C(C)(C)C)cc(NS(C)(=O)=O)c4OC)c4ccccc34)ccn2)cc(OCCOCCOC(C)C(=O)O)c1` (stereo not shown) [Example 14] yielded an IC50 (Homo sapiens, PBMC) of 7.3 nM.
